PubChem BioAssay AID1159614 (National Center for Advancing Translational Sciences (NCATS), 2016)
The entries are a selection whose mix differs from that of the whole data set. Active and inactive are the calls of the source. Calls follow the shape of the dose curve; as a rule, active = well fitted activation curve with a large enough effect; inconclusive = small, poorly fitted or top-dose-only effect; inactive = no such curve, though single readings can be large or run the other way.
Also: 0% is about no effect; nearly all actives have a fitted effect of over 65% in size.

Sequences of proteins named here, by UniProt entry; tags and fusion partners are left off. A change or cut given only in a name is not applied to a line headed by its entry.
UniProt P54803: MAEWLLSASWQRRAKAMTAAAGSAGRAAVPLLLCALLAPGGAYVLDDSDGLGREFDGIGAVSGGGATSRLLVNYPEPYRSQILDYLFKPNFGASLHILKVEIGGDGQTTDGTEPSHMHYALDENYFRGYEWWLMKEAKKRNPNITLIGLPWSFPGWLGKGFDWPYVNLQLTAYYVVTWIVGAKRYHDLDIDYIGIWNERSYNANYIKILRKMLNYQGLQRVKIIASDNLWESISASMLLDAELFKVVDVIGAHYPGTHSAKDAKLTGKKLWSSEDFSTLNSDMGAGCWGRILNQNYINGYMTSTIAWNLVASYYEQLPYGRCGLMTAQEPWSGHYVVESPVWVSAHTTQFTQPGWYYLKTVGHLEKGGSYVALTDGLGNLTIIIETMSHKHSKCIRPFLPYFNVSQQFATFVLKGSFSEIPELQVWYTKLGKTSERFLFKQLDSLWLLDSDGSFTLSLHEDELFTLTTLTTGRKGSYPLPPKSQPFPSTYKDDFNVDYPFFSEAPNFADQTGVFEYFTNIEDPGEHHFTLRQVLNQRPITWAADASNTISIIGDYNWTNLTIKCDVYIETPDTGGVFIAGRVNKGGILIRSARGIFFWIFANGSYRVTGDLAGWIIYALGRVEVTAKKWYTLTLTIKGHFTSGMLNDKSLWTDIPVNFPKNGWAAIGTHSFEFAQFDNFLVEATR

Each compound was assayed against Galactocerebrosidase (Homo sapiens) (UniProt P54803) (assay: A Novel Cell-Based Assay to Identify Small Molecules for B -Galactocerebrosidase). Settings: 145M-Twi-hGALC-G270D cells (Twitcher mouse brain line with human GALC G270D), HMU-beta-Gal fluorescence, 48 h; at 57.5 µM (top of the series) unless noted.
In the case of CCNC(C)Cc1ccc2c(c1)OCO2 (stereo not given), the activation was inactive: -12.1% [at 129 µM]. For Cc1cc([N+](=O)[O-])cc([N+](=O)[O-])c1O, the activation was inactive: -10% [at 114 µM]. For CN(C(=O)Cc1ccccc1)[C@H]1CC[C@@]2(CCCO2)C[C@@H]1N1CCCC1, the activation was inactive: -15%. CN(C(=O)Cc1ccc(Cl)c(Cl)c1)[C@H]1CC[C@@]2(CCCO2)C[C@@H]1N1CCCC1 was tested, and the activation was inactive: -13%. NC(=O)Nc1ccc([As](=O)(O)O)cc1 was tested, and the activation was inactive: -14.2%.
